Data as given in ChEMBL document CHEMBL1157459 (J Med Chem, 2008).

Sequences of proteins named here, by UniProt entry; tags and fusion partners are left off. A change or cut given only in a name is not applied to a line headed by its entry.
UniProt P24046: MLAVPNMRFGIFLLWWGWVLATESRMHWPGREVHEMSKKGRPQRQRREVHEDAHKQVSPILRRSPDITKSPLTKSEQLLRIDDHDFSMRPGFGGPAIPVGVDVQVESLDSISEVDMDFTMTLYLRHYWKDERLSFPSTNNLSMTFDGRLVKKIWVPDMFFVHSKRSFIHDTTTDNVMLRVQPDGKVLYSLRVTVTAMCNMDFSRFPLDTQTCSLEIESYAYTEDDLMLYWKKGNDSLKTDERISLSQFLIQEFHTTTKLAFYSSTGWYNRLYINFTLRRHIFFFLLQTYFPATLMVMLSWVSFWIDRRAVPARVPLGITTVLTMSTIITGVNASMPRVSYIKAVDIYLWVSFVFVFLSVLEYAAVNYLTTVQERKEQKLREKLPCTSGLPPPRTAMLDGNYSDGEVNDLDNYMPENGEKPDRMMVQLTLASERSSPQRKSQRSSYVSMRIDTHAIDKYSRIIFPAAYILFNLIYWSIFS

Target: Gamma-aminobutyric acid receptor subunit rho-1 (Homo sapiens, UniProt P24046)
Test: Antagonist activity at human GABAc Rho1 receptor expressed in Xenopus oocytes assessed as whole cell current production by two electrode voltage clamp method
Type: functional, cell-based
Settings: Oocyte

CP(=O)(O)CCCN
Kb: 800 nM
